Experimental data from patent publication US20260041653A1, “AN HDAC INHIBITOR FOR TREATING CANCER WITH A MODIFIED STK11 ACTIVITY OR EXPRESSION” (Tango Therapeutics, Inc., priority 2022, published 2026).

Test system: T1, CoREST complex
T1 construct: rows headed: IC50 CoREST; other: complex co-immunoprecipitated from A549 cells; unit not given
Experiment: Fluorescence-based deacetylase assay of cell-derived HDAC complex, CoREST
Format: biochemical
Conditions: complex co-immunoprecipitated from A549 cells; unit inferred

O=C(CCCCCCC(=O)Nc1ccccc1)NO [Vorinostat, reference compound] was tested, and the IC50 was 61 nM.
